Values of other authors in patent US10736889B2, “Method of treating dyskinesia” (Rutgers, The State University of New Jersey, priority 2011, dated 2020).

Amino acid sequences for entries named in this document (tags omitted). A change or cut given only in a name is not applied to a line headed by its entry.
UniProt P35372, whole entry: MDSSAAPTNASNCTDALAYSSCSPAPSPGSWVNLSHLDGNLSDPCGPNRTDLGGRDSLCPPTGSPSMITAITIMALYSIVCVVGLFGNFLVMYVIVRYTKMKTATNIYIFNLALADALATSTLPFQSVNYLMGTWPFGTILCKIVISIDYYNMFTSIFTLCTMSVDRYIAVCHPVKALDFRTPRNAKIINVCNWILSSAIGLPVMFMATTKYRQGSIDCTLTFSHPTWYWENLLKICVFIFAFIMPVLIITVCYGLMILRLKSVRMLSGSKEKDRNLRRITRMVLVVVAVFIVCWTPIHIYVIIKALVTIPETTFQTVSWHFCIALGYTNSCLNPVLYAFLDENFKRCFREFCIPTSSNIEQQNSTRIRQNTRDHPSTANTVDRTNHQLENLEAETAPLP
UniProt P41145: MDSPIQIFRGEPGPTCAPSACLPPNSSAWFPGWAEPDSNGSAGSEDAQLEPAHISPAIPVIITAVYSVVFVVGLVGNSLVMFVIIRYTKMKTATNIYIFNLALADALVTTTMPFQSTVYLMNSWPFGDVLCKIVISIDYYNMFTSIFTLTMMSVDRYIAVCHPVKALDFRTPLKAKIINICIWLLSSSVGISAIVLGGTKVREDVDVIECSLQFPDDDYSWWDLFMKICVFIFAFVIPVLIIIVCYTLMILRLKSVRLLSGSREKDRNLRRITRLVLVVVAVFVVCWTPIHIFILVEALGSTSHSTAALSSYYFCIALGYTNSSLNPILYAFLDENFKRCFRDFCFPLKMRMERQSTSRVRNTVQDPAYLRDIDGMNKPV

What was measured:
μ-opioid receptors = μ-opioid receptors (Homo sapiens, UniProt P35372)
κ-opioid receptors = κ-opioid receptors (Homo sapiens, UniProt P41145)

N-allyl-normorphine [Nalorphine]
Ki (μ-opioid receptors): ~8.13 nM | Ki (κ-opioid receptors): ~7.66 nM
